# Like-named read-outs stand apart in the source and are kept apart here.
# By UniProt entry, the sequences of proteins in these tests, tags left out.
# UniProt P30543, whole entry: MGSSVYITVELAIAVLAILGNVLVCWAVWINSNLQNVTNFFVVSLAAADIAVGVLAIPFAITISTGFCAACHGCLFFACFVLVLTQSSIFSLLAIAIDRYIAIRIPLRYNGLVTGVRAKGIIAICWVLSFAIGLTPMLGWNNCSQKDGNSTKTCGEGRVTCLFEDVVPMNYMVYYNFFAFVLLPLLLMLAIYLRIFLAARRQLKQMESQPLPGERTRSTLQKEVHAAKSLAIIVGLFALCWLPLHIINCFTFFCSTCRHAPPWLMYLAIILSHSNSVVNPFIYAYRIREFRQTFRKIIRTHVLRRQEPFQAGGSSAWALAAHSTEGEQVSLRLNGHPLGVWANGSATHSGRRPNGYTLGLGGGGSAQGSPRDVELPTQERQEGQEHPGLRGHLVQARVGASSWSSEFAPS
# Molecular target: adenosine receptors (rat striatal membranes, [3H]-CGS21680) (Rattus norvegicus, UniProt P30543)
# Assay: Ki from displacement of [3H]-CGS21680 in rat striatal membranes at pH 5.5 and pH 7.4
# Format: binding
# Conditions: 2 nM [3H]-CGS21680, 90 minutes at 22° C.
# [1] = read-out: (Ki) nM (pH 5.5), pH 5.5
# [2] = read-out: (Ki) nM (pH 7.4), pH 7.4
SMILES,Ki [1],Ki [2]
CCCCCCCc1nc(N)c2ncn([C@@H]3O[C@H](CO)[C@@H](O)[C@H]3O)c2n1,15 nM,800 nM
CCCCCCOc1nc(N)c2ncn([C@@H]3O[C@H](CO)C[C@H]3O)c2n1,13 nM,2990 nM
